These results are taken from PMC5839545, “CENP-C/H/I/K/M/T/W/N/L and hMis12 but not CENP-S/X participate in complex formation in the nucleoplasm of living human interphase cells outside centromeres” (PLoS ONE, 2018).

Several values for one entry are separate records, joined by “and”; a condition that tells them apart may be missing. Identical values can stand only once.

To fix the notation:
T1: mCherry-(l)-CENP-S (human, UniProt Q8N2Z9 1-138)
T1 construct: CENP-S, human; source: HEp-2 or U2OS cells, transfected by electroporation, in living cells; not shown: mCherry (long linker [residues removed]), N-terminal, kept
T1 sequence (looked up): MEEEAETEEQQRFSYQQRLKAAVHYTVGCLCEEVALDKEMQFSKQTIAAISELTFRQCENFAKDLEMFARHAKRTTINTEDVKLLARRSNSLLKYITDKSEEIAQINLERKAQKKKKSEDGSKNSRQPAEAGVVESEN

T2: EGFP-(s)-CENP-T^∆N (human, UniProt Q96BT3 396-561)
T2 construct: CENP-T, human, C-terminal domain, aas 396-561, said to contain the histone-fold domain (aas 376-561); also called EGFP-(s)-CENP-T^396-561; source: HEK293 cells, transfected by electroporation, in living cells
T2 sequence (looked up): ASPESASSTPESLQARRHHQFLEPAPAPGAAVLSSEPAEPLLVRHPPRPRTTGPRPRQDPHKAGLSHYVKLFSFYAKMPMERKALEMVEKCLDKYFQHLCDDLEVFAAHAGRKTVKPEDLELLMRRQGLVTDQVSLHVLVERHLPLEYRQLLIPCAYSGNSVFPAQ

T3: mCherry-(s)-CENP-K (human, UniProt Q9BS16 1-269)
T3 construct: CENP-K, human; also called mCherry-CENP-K; source: HEp-2 or U2OS cells, transfected by electroporation, in living cells
T3 sequence (looked up): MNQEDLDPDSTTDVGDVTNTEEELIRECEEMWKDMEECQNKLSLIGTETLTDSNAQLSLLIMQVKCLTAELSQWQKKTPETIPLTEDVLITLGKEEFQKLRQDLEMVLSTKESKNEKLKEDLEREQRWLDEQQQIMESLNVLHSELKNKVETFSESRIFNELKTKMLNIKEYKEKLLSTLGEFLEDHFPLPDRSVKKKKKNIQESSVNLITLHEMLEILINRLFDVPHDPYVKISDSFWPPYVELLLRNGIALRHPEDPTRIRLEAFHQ

B1: EGFP-(s)-CENP-X (natural protein, human, UniProt A8MT69 1-81, looked up)
chain: MEGAGAGSGFRKELVSRLLHLHFKDDKTKVSGDALQLMVELLKVFVVEAAVRGVRQAQAEDALRVDVDQLEKVLPQLLLDF
notes: CENP-X, human; source: HEp-2 or U2OS cells (DC-FCCS) and HEK293 cells (SW-FCCS), transfected by electroporation, in living cells
B2: mCherry-(s)-CENP-X (natural protein, human, UniProt A8MT69 1-81, looked up)
chain: B1 chain
notes: as for B1
B3: EGFP-(s)-CENP-M (natural protein, human, UniProt Q9NSP4 1-180, looked up)
chain: MSVLRPLDKLPGLNTATILLVGTEDALLQQLADSMLKEDCASELKVHLAKSLPLPSSVNRPRIDLIVFVVNLHSKYSLQNTEESLRHVDASFFLGKVCFLATGAGRESHCSIHRHTVVKLAHTYQSPLLYCDLEVEGFRATMAQRLVRVLQICAGHVPGVSALNLLSLLRSSEGPSLEDL
notes: CENP-M, human; source: HEp-2 or U2OS cells, transfected by electroporation, in living cells
B4: EGFP-(s)-CENP-W (natural protein, human, UniProt Q5EE01 1-88, looked up)
chain: MALSTIVSQRKQIKRKAPRGFLKRVFKRKKPQLRLEKSGDLLVHLNCLLFVHRLAEESRTNACASKCRVINKEHVLAAAKVILKKSRG
notes: CENP-W, human; source: HEK293 cells, transfected by electroporation, in living cells
B5: mCherry-(s)-CENP-W (natural protein, human, UniProt Q5EE01 1-88, looked up)
chain: B4 chain
notes: CENP-W, human; source: HEp-2 or U2OS cells (DC-FCCS) and HEK293 cells (SW-FCCS), transfected by electroporation, in living cells
B6: EGFP-(s)-CENP-S (natural protein, human, UniProt Q8N2Z9 1-138, looked up)
chain: T1 sequence (looked up)
notes: CENP-S, human; source: HEK293 cells, transfected by electroporation, in living cells
B7: EGFP-(l)-CENP-L (natural protein, human, UniProt Q8N0S6 1-344, looked up)
chain: MDSYSAPESTPSASSRPEDYFIGATPLQKRLESVRKQSSFILTPPRRKIPQCSQLQEDVDPQKVAFLLHKQWTLYSLTPLYKFSYSNLKEYSRLLNAFIVAEKQKGLAVEVGEDFNIKVIFSTLLGMKGTQRDPEAFLVQIVSKSQLPSENREGKVLWTGWFCCVFGDSLLETVSEDFTCLPLFLANGAESNTAIIGTWFQKTFDCYFSPLAINAFNLSWMAAMWTACKMDHYVATTEFLWSVPCSPQSLDISFAIHPEDAKALWDSVHKTPGEVTQEEVDLFMDCLYSHFHRHFKIHLSATRLVRVSTSVASAHTDGKIKILCHKYLIGVLAYLTELAIFQIE
notes: CENP-L, human; source: HEp-2 or U2OS cells, transfected by electroporation, in living cells; not shown: EGFP (long linker [residues removed]), N-terminal, kept
B8: EGFP-(s)-CENP-H (natural protein, human, UniProt Q9H3R5 1-247, looked up)
chain: MEEQPQMQDADEPADSGGEGRAGGPPQVAGAQAACSEDRMTLLLRLRAQTKQQLLEYKSMVDASEEKTPEQIMQEKQIEAKIEDLENEIEEVKVAFEIKKLALDRMRLSTALKKNLEKISRQSSVLMDNMKHLLELNKLIMKSQQESWDLEEKLLDIRKKRLQLKQASESKLLEIQTEKNKQKIDLDSMENSERIKIIRQNLQMEIKITTVIQHVFQNLILGSKVNWAEDPALKEIVLQLEKNVDMM
notes: CENP-H, human; source: HEp-2 or U2OS cells, transfected by electroporation, in living cells
B9: CENP-T-(s)-EGFP (natural protein, human)
chain: MADHNPDSDSTPRTLLRRVLDTADPRTPRRPRSARAGARRALLETASPRKLSGQTRTIARGRSHGARSVGRSAHIQASGHLEEQTPRTLLKNILLTAPESSILMPESVVKPVPAPQAVQPSRQESSCGSLELQLPELEPPTTLAPGLLAPGRRKQRLRLSVFQQGVDQGLSLSQEPQGNADAS[about 40 residues not printed]AVDVGAFLRDLRDTSLAPPNIVLEDTQPFSQPMVGSPNVYHSLPCTPHTGAEDAEQAAGRKTQSSGPGLQKNSPGKPAQFLAGEAEEVNAFALGFLSTSSGVSGEDEVEPLHDGVEEAEKKMEEEGVSVSEMEATGAQGPSRVEEAEGHTEVTEAEGSQGTAEADGPGASSGDEDASGRAASPESASSTPESLQARRHHQFLEPAPAPGAAVLSSEPAEPLLVRHPPRPRTTGPRPRQDPHKAGLSHYVKLFSFYAKMPMERKALEMVEKCLDKYFQHLCDDLEVFAAHAGRKTVKPEDLELLMRRQGLVTDQVSLHVLVERHLPLEYRQLLIPCAYSGNSVFPAQ
notes: CENP-T, human; source: HEp-2 or U2OS cells, transfected by electroporation, in living cells; not shown: EGFP (short linker)
B10: CENP-K-(s)-EGFP (natural protein, human, UniProt Q9BS16 1-269, looked up)
chain: T3 sequence (looked up)
notes: CENP-K, human; source: HEp-2 or U2OS cells, transfected by electroporation, in living cells; not shown: EGFP (short linker)

Common to all, as to settings: partners not purified
One assay deals with T1, mCherry-(l)-CENP-S. Briefly: dual color fluorescence cross-correlation spectroscopy (DC-FCCS); EGFP and mCherry fusion proteins co-expressed in living interphase HEp-2 or U2OS cells; spots in the nucleoplasm free of kinetochores, focal volume bleached before; 37°C; 488 and 561 nm; corrected values are the measured ones times about two.
The assay “EGFP-(s)-CENP-S” addresses B6. Kind of assay: single-wavelength fluorescence cross-correlation spectroscopy (SW-FCCS); EGFP and mCherry fusion proteins co-expressed in living interphase HEK293 cells; nucleoplasm; 37°C; 514 nm; effective (apparent) Kd from scatter plot (S) or histogram (H), corrected for non-fluorescent mCherry and observation volumes.
The next assay has as its target T4, CENP-T-(s)-mCherry (human, UniProt Q96BT3).
T4 construct: CENP-T, human; called full-length CENP-T against its N-terminal domain; source: HEp-2 or U2OS cells, transfected by electroporation, in living cells; not shown: mCherry (short linker)
Briefly: dual color fluorescence cross-correlation spectroscopy (DC-FCCS); EGFP and mCherry fusion proteins co-expressed in living interphase HEp-2 or U2OS cells; spots in the nucleoplasm free of kinetochores, focal volume bleached before; 37°C; 488 and 561 nm; corrected values are the measured ones times about two.

For a further assay, the target named is T5, mCherry-(s)-CENP-T (human, UniProt Q96BT3).
T5 construct: CENP-T, human; called wildtype against CENP-T^∆N; source: HEp-2 or U2OS cells (DC-FCCS) and HEK293 cells (SW-FCCS), transfected by electroporation, in living cells
Briefly: single-wavelength fluorescence cross-correlation spectroscopy (SW-FCCS); EGFP and mCherry fusion proteins co-expressed in living interphase HEK293 cells; nucleoplasm; 37°C; 514 nm; effective (apparent) Kd from scatter plot (S) or histogram (H), corrected for non-fluorescent mCherry and observation volumes.

For a further assay, the target named is T2, EGFP-(s)-CENP-T^∆N. The assay is described as above.
The assay “mCherry-(s)-CENP-X” concerns the target B2. The description is as above.
The next assay concerns the target T3, mCherry-(s)-CENP-K. Briefly: dual color fluorescence cross-correlation spectroscopy (DC-FCCS); EGFP and mCherry fusion proteins co-expressed in living interphase HEp-2 or U2OS cells; spots in the nucleoplasm free of kinetochores, focal volume bleached before; 37°C; 488 and 561 nm; corrected values are the measured ones times about two.
The next assay deals with T6, CENP-C-(s)-mCherry (human).
T6 construct: CENP-C, human; source: HEp-2 or U2OS cells, transfected by electroporation, in living cells; not shown: mCherry (short linker)
The assay is described as above.

For the next assay, the target named is T7, mCherry-(s)-CENP-C (human).
T7 construct: CENP-C, human; source: HEp-2 or U2OS cells, transfected by electroporation, in living cells
Described as above.

The assay “mCherry-(s)-CENP-W” deals with B5. Described as above.

Take B1: the “cross-correlation, measured (%)” value in the assay with mCherry-(l)-CENP-S is 31%. Consider B2, for which, in the assay with EGFP-(s)-CENP-S, the Kd was 264 nM and 287 nM. Take B3: the “cross-correlation, measured (%)” value with CENP-T-(s)-mCherry stood at 13%.

Regarding B4, in the assay with mCherry-(s)-CENP-T, the Kd was 538 nM and 340 nM; the “Kd, uncorrected” value is 1500 nM and 626 nM; the “dimer, corrected (%)” value was determined as 51%; the “dimer, uncorrected (%)” value amounted to 35.4%. In the case of B5, in the assay with EGFP-(s)-CENP-T^∆N, the Kd is 1300 nM and 944 nM. With B6, in the assay with mCherry-(s)-CENP-X, the “dimer, corrected (%)” value turned out to be 58% and the “dimer, uncorrected (%)” value turned out to be 41.6%. Turning to B7, the “cross-correlation, measured (%)” value with mCherry-(s)-CENP-K is 18%.

For the molecule B8, the “cross-correlation, measured (%)” value in the assay with CENP-C-(s)-mCherry was 18%; in the assay with mCherry-(s)-CENP-C, 26%; with mCherry-(s)-CENP-K, 31%.

Regarding B9, the “cross-correlation, measured (%)” value with mCherry-(s)-CENP-W was found to be 28%. Consider B10, for which the “cross-correlation, measured (%)” value with CENP-T-(s)-mCherry stood at 31%.
